Only a part is listed here, and it is no random draw. Active and inactive are the calls of the source.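 The calls were made as follows: active = mean replicate inhibition at least 60% with every replicate also reaching 60%; inconclusive = only one of the two criteria is met; inactive = mean below 60% and not all replicates reaching 60%.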
Test: inhibitors of PAX8-driven TPO luciferase reporter, primary screen, RMG-I cells, single concentration (AID 652154);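 also: luciferase light reporting Pax8 driven TPO promoter activity; plate controls were median of neutral control wells for no effect and mitoxantrone controls for full effect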
Conditions: SteadyGlo, 24 h, at 12.6 µM, hits give high values

Row | Structure (SMILES) | inhibition
1 | CC(C)(C)C(=O)NC(Sc1ccncn1)C(Cl)(Cl)Cl (stereo not given) | inactive: 14.3%
2 | O=C(O)CNc1ccc([As](=O)(O)O)cc1 | inactive: -9.18%
3 | O=[N+]([O-])c1cccc(NC2=NCC(CBr)S2)c1 (stereo not given) | inactive: -8.33%
4 | COC(=O)C1(C)COP(=O)(Nc2ccccc2)OC1 (stereo not given) | inactive: -0.446%
5 | O=P1(N(CCCl)CCCl)OCCCS1 (stereo not given) | inactive: 9.78%
6 | O=C(Nc1cc([As](=O)(O)O)ccc1O)c1ccccc1 | inactive: -14.9%
7 | CCOC(=O)Nc1cccc([As](=O)(O)O)c1 | inactive: 1.73%
8 | O=P(Nc1ccccn1)(c1cccc2ccccc12)c1cccc2ccccc12 | inactive: -8.74%
9 | Cc1cc(SC(NC=O)C(Cl)(Cl)Cl)ncn1 (stereo not given) | inactive: -3.23%
10 | O=[N+]([O-])c1ccc(Nc2ccc(Oc3ccc([N+](=O)[O-])cc3[N+](=O)[O-])cc2)c([N+](=O)[O-])c1 | inactive: -6.9%
11 | CCOC(=O)Nc1ccc([As](=O)(O)O)c(O)c1 | inactive: -13.3%
12 | O=C(O)C(O)c1ccc(N(CCCl)CCCl)cc1 (stereo not given) | inactive: 8.73%
13 | CC1CCNP(=O)(N(CCCl)CCCl)O1 (stereo not given) | inactive: -6.46%
14 | COP(=O)(OC)N1CC1c1ccccc1 (stereo not given) | inactive: -3.46%
15 | CCCCOc1ccc(C(=O)NCC2(N3CCCCC3)CCCCC2)cc1OC | inactive: 8.4%
16 | Cc1cc(SC(NC(=O)c2ccccc2)C(Cl)(Cl)Cl)nc(C(C)C)n1 (stereo not given) | inactive: 11%
17 | O=C(OC1CN2CCC1CC2)c1cccc([N+](=O)[O-])c1 (stereo not given) | inactive: -1.02%
18 | CCOC(=O)c1ccc(NC(=O)C(C)(CCl)SC)cc1 (stereo not given) | inactive: -71.3%
19 | CCC(C)N(CC(C)C)C(=S)SC(NC(C)=O)C(Cl)(Cl)Cl (stereo not given) | inactive: -4.97%
20 | COC(=O)C1(C)COP(=O)(N2CCCC2)OC1 (stereo not given) | inactive: -2.51%
21 | O=C(O)C(=O)c1ccc(N(CCCl)CCCl)cc1 | inactive: 4.89%
22 | O=C(COc1ccccc1)OC1CN2CCC1CC2 (stereo not given) | inactive: 1.96%
23 | O=C(Nc1ccncc1[N+](=O)[O-])c1ccc([N+](=O)[O-])cc1[N+](=O)[O-] | inactive: -27%
24 | O=[N+]([O-])c1cc(Oc2ccc([N+](=O)[O-])cc2C(F)(F)F)cc([N+](=O)[O-])c1 | inactive: 7.06%
25 | COc1ccc(N/C(=N/P(=O)(N2CCOCC2)N2CCOCC2)N2CCOCC2)cc1 | inactive: -15%
26 | Cc1c2c(nc3ccccc13)SC(C(Cl)Cl)C2 (stereo not given) | inactive: 4.4%
27 | Cc1cc(=O)[nH]c(N[N+](=O)[O-])n1 | inactive: 0.542%

Row | Structure (SMILES) | inhibition
28 | COc1ccc(CN2/C(=N\P(=O)(Oc3ccccc3)Oc3ccccc3)Cc3ccccc3C2C2CC2)cc1 (stereo not given) | active: 89.6%
29 | O=P1(N(CCCl)CCCl)OCCCN1CCCl (stereo not given) | inactive: -9.57%
30 | COc1ccc2nc(NP(=O)(c3ccccc3)c3ccccc3)sc2c1 | inactive: 8.84%
31 | COc1cc(I)ccc1[As](=O)(O)O | inactive: 14%
32 | ClCCSc1nnc(-c2cccnc2)o1 | inactive: -3.23%
33 | CC(C)c1ccc(OP(=O)(Nc2ccccn2)Oc2ccccc2F)cc1 (stereo not given) | inactive: 10.2%
34 | COC(=O)C1(C)COP(=O)(N2CCCCCC2)OC1 (stereo not given) | inactive: 15.4%
35 | O=C(OC1CN2CCC1CC2)c1cccc2[nH]cnc12 (stereo not given) | inactive: 4.74%
36 | CC(C)NC(=O)NP(=O)(Oc1ccccc1)Oc1ccccc1 | inactive: -2.79%
37 | O=[As](O)(c1ccc(O)cc1)c1ccccc1O | inactive: -19.5%
38 | C[As](=O)(O)c1cccc(C(=O)O)c1 | inactive: -10.1%
39 | COc1cc(C(=O)NCC2(N3CCOCC3)CCCCC2)ccc1OCC(C)C | inactive: 10.1%
40 | O=[N+]([O-])c1ccc(-c2cc([N+](=O)[O-])c(O)c([N+](=O)[O-])c2)cc1 | inactive: -24%
41 | [N-]=[N+]=NC1CCCCC1NC(=O)c1cc([N+](=O)[O-])cc([N+](=O)[O-])c1 (stereo not given) | inactive: -5.95%
42 | Cc1ccc(OP(=O)(Nc2ccc([N+](=O)[O-])cn2)Oc2ccc(C)cc2)cc1 | inactive: -26.1%
43 | Cc1ccc2nc3c(c(C)c2c1)CC(C(Cl)Cl)S3 (stereo not given) | inactive: -35.1%
44 | NC(=O)Nc1ccc([As](=O)(O)O)cc1 | inactive: -1.35%
45 | N#CCCN(C(=O)COC(=O)C(O)(c1ccccc1)c1ccccc1)c1ccc(F)cc1 | inactive: 8.08%
46 | CN(C(=O)Cc1ccccc1)[C@@H]1CC[C@]2(CCCO2)C[C@H]1N1CCCC1 | inactive: 11.5%
47 | CN(C)C(=O)c1cc([N+](=O)[O-])cc2c1-c1c(cc([N+](=O)[O-])cc1[N+](=O)[O-])C2=O | inactive: 56.8%
48 | CN(C(=O)Cc1ccc(Cl)c(Cl)c1)[C@H]1CC[C@@]2(CCCO2)C[C@@H]1N1CCCC1 | inactive: -12.9%
49 | O=P(Nc1nccs1)(Oc1ccccc1)Oc1ccccc1 | inactive: -6.73%
50 | Nc1ccccc1[As](=O)(O)c1ccccc1 | inactive: 1.35%
51 | O=C(O)COc1ccc([As](=O)(O)O)cc1[N+](=O)[O-] | inactive: 11.1%
52 | Nc1cccc2c([As](=O)(O)O)cccc12 | inactive: -1.99%
53 | Cc1ccc(NCCc2c([N+](=O)[O-])cc([N+](=O)[O-])cc2[N+](=O)[O-])cc1 | inactive: -12%
54 | CCCOP(=S)(Nc1nc(N)cc(=O)[nH]1)OCCC | inactive: 12.4%

Row | Structure (SMILES) | inhibition
55 | CCOP(=O)(Nc1cccc2ccccc12)OCC | inactive: 18.6%
56 | O=C(OC1CN2CCC1CC2)c1ccc(Cl)cc1 (stereo not given) | inactive: -1.92%
57 | COc1cc(C(=O)NCC2(N3CCOCC3)CCCCC2)cc(Cl)c1OC(C)C | inactive: 27.8%
58 | O=[As](O)(O)c1cccnc1 | inactive: 9.67%
59 | CS(=O)(=O)c1ccc(Cl)c(NC(=O)COC(=O)C(O)(c2ccccc2)c2ccccc2)c1 | inactive: 12.6%
60 | O=[As](O)(c1cccc(O)c1)c1cccc(O)c1 | inactive: 3.74%
61 | COc1ccccc1CNC(=O)COC(=O)C(O)(c1ccccc1)c1ccccc1 | inactive: 2.8%
62 | CC(C)/C=N\N=C(\N)N[N+](=O)[O-] | inactive: -20.2%
63 | CN(C(=O)Cc1ccc(Cl)c(Cl)c1)[C@@H]1CCCC[C@H]1N1CCCC1 | inactive: -3.35%
64 | O=P1(Nc2ccccn2)COc2ccccc2OC1 | inactive: 12.8%
65 | CCC1=CC2Cc3nc4ccc(Cl)cc4c(N)c3C(C1)C2 (stereo not given) | inactive: 44.5%
66 | CCOP(=O)(NC(=NC(C)c1ccccc1)NC(C)c1ccccc1)OCC (stereo not given) | inactive: -20.1%
67 | CN(CCCl)Cc1cc(Cl)c(NC2=NCCN2)c(Cl)c1 | inactive: -9.72%
68 | CCOP(=O)(Nc1ccc(C)cn1)OCC | inactive: 4.42%
69 | O=P1(N(CCCl)CCCl)NCCC(C(F)(F)F)O1 (stereo not given) | inactive: -7.48%
70 | CC(C)(C)C(=O)NC(Sc1ncccn1)C(Cl)(Cl)Cl (stereo not given) | inactive: 0.09%
71 | Cc1ccc(S(=O)(=O)N(CCCN)CCCc2c(C)nc(N)[nH]c2=O)cc1 | inactive: -3.62%
72 | O=P1(Nc2ncccn2)COc2ccccc2OC1 | inactive: 7.3%
73 | Nc1cccc([As](=O)(O)c2ccccc2)c1 | inactive: -9.83%
74 | NS(=O)(=O)c1cccc(NC(=O)COC(=O)C(O)(c2ccccc2)c2ccccc2)c1 | inactive: -0.608%
75 | O=[As](O)(c1cccs1)c1cccs1 | inactive: -20%
76 | CC1CCC(C(C)C)C(OP(=O)(Nc2ccccn2)c2ccccc2)C1 (stereo not given) | inactive: 22.2%
77 | Cc1ccc(C(=O)OC2CN3CCC2CC3)cc1 (stereo not given) | inactive: 2.67%
78 | CN(C)C1(CNC(=O)c2ccc(S(C)(=O)=O)cc2)CCCCC1 | inactive: -3.75%
79 | O=C(/C=C/c1ccccc1)OC1CN2CCC1CC2 (stereo not given) | inactive: -18.4%
80 | CCCC1OP(=O)(Nc2ccccc2)OCC1CC (stereo not given) | inactive: 8.34%
